Only a part is listed here, and it is no random draw. Some of these compounds have results that are not shown, active ones among them. Active and inactive are the calls of the source.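 How the source made its calls: active means inhibition of at least 50% at 20 µM; inactive means the rest.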

The assay is described as follows: Peg3 promoter-driven luciferase inhibitors, primary screen, cell-based, HeLa, luciferase luminescence (AID 588405). The conditions noted are these: HeLa PEG-Prom luciferase reporter, overnight, at 20 µM, active compounds read high.
Regarding `COc1cccc(C(=O)NCC2(N3CCCCC3)CCCCC2)c1`, the inhibition is inactive: 0.53%.

With `COc1ccc(Cl)cc1C(=O)NCC1(N(C)C)CCCCC1`, the inhibition was inactive: 5.81%.

Turning to `O=C(NCC1(N2CCCCC2)CCCCC1)c1cccc(Cl)c1`, the inhibition was inactive: 6.83%. To `CN(C)C1(CNC(=O)c2ccc(Br)cc2)CCCCC1` belongs inactive: 7.53%; to `COc1cc(C(=O)NCC2(N(C)C)CCCCC2)c([N+](=O)[O-])cc1OC`, inactive: -2.97%; to `COc1ccc(Br)c(C(=O)NCC2(N3CCCCC3)CCCCC2)c1`, inactive: -1.2%.

On to `C=C(C)C#CC(O)(C(=O)OC1CCN(C)CC1)c1ccccc1` (stereo unspecified), for which the inhibition is inactive: -2.93%. To `CN(C)c1cccc(C(=O)NCC2(N(C)C)CCCCC2)c1` belongs inactive: -1.21%; to `CC(C)Oc1ccc(C(=O)NCC2(N(C)C)CCCCC2)cc1`, inactive: 14.2%; to `O=C(OCCN1CCCC1)C(O)(c1ccccc1)c1ccccc1`, inactive: -5.23%. Regarding `O=C(OC1CN2CCC1CC2)C(CO)(c1ccccc1)c1ccccc1` (stereo unspecified), the inhibition is inactive: 14.1%. For `CC(C)N1C(=O)CC2(CCN(CCOC(=O)C(O)(c3ccccc3)c3ccccc3)CC2)C1=O` the value was inactive: 11.2%; for `CCN(CC)CC(C)C(C)OC(=O)C(O)(c1ccccc1)c1ccccc1` (stereo unspecified), inactive: 5.62%; for `COc1cc(SC)ccc1C(=O)NCC1(N(C)C)CCCCC1`, inactive: 1.33%. To `Cc1ccc(C(=O)NCC2(N3CCCCC3)CCCCC2)cc1` belongs inactive: 16%; to `O=C(NCC1(N2CCCCC2)CCCCC1)c1cc([N+](=O)[O-])ccc1Cl`, inactive: 7.1%. For `CN1[C@@H]2CC[C@H]1CC(OC(=O)C(O)(c1ccccc1)c1ccccc1)C2` (stereo partly specified) the value was inactive: 1.89%; for `C=CCN1CCN(CCOC(=O)C(O)(c2ccccc2)c2ccccc2)CC1`, inactive: 10.9%. On to `O=C(NCC1(N2CCCCC2)CCCCC1)c1cc(F)c(F)cc1Cl`, for which the inhibition was inactive: 13.2%.

Take `Cc1cc(C(=O)NCC2(N3CCCCC3)CCCCC2)ccc1[N+](=O)[O-]`: the inhibition was inactive: -10.8%. For `CCN1CCCC(OC(=O)C2(O)c3ccccc3C=Cc3ccccc32)C1` (stereo unspecified) the value was inactive: -4.08%. To `O=C(NCC1(N2CCCCC2)CCCCC1)c1cccc(Br)c1` belongs inactive: 17.8%; to `COc1ccc(C(=O)NCC2(N(C)C)CCCCC2)cc1`, inactive: 2.84%. To `Cc1ccccc1C(=O)NCC1(N2CCCCC2)CCCCC1` belongs inactive: 6.62%.

As for `CN(C)C1CCCC1OC(=O)C(O)(c1ccccc1)c1ccccc1` (stereo unspecified), the inhibition is inactive: -11.7%. Regarding `CN(C)c1ccc(C(=O)NCC2(N(C)C)CCCCC2)cc1`, the inhibition is inactive: -11.4%.
